Experimental data reported in patent US7094543B2, “Methods for detecting rare polymorphic variants in genomic DNA sequences” (dated 2006).

How the values were obtained:
HPRT gene = assay: microtiter plate mutation assay selecting 6-thioguanine-resistant colonies; details: MT1 cells, 4 μM MNNG for 45 minutes, 6TGR colonies
[1] = tested on: APC gene target sequence (APC cDNA bp 8543–8663); assay: point mutational spectrum by target enrichment, CDCE and hifiPCR in MNNG-treated MT1 cells
[2] = sequence printed PyGPu (row r15)

Structure (SMILES): CN(N=O)C(=N)N[N+](=O)[O-]
- MNNG-induced mutant fraction in the HPRT gene (HPRT gene): 8×10^−3
- likelihood of mutation of guanine preceded 5′ by a purine vs by a pyrimidine ([1]; MNNG-induced GC->AT transitions, 29 guanine sites): seven times more likely to be mutated
- Average mutant fraction per site (×10^6) ([1]; sequence GPu): 2.5 ×10^6
- Total mutant fraction (×10^6) ([1]; sequence GPu): 37 ×10^6
- # mutated sites ([1]; sequence GPu, 15 guanine sites): 8
- Average mutant fraction per site (×10^6) ([1]; sequence GPy): 1.9 ×10^6
- Total mutant fraction (×10^6) ([1]; sequence GPy): 27 ×10^6
- # mutated sites ([1]; sequence GPy, 14 guanine sites): 4
- Average mutant fraction per site (×10^6) ([1]; sequence PuG): 3.5 ×10^6
- Total mutant fraction (×10^6) ([1]; sequence PuG): 59 ×10^6
- # mutated sites ([1]; sequence PuG, 17 guanine sites): 11
- Average mutant fraction per site (×10^6) ([1]; sequence PuGPu): 4.7 ×10^6
- Total mutant fraction (×10^6) ([1]; sequence PuGPu): 47 ×10^6
- # mutated sites ([1]; sequence PuGPu, 10 guanine sites): 7
- Average mutant fraction per site (×10^6) ([1]; sequence PuGPy): 2.6 ×10^6
- Total mutant fraction (×10^6) ([1]; sequence PuGPy): 18 ×10^6
- # mutated sites ([1]; sequence PuGPy, 7 guanine sites): 4
- Average mutant fraction per site (×10^6) ([1]; sequence PyG): 0.5 ×10^6
- Total mutant fraction (×10^6) ([1]; sequence PyG): 6 ×10^6
- # mutated sites ([1]; sequence PyG, 12 guanine sites): 1
- Average mutant fraction per site (×10^6) ([1]; sequence PyGPu (row r14)): 1.2 ×10^6
- Total mutant fraction (×10^6) ([1]; sequence PyGPu (row r14)): 6 ×10^6
- # mutated sites ([1]; sequence PyGPu (row r14), 5 guanine sites): 1
- Average mutant fraction per site (×10^6) [1, 2]: 0 ×10^6
- Total mutant fraction (×10^6) [1, 2]: 0 ×10^6
- # mutated sites ([1]; sequence printed PyGPu (row r15), 7 guanine sites): 0
